Assay results taken from ChEMBL document CHEMBL1124535, “Highly selective kappa-opioid analgesics. 2. Synthesis and structure-activity relationships of novel N-[(2-aminocyclohexyl)aryl]acetamide derivatives” (1989).

The chains behind the UniProt entries cited, without tags or fusion partners. Where a name states a change or a piece, a line headed by the entry shows the natural chain unless it says otherwise.
UniProt P41145: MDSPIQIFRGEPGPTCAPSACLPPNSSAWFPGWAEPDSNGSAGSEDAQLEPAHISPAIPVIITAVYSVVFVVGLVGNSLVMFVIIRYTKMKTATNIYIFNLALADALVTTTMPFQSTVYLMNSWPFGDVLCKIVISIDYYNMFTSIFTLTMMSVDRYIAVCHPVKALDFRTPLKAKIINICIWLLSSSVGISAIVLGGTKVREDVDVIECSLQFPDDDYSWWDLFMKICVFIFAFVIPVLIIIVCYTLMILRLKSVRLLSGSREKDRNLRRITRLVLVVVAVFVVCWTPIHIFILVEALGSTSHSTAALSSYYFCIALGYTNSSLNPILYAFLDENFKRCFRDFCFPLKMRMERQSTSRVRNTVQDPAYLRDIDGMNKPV
UniProt P35372, whole entry, looked up: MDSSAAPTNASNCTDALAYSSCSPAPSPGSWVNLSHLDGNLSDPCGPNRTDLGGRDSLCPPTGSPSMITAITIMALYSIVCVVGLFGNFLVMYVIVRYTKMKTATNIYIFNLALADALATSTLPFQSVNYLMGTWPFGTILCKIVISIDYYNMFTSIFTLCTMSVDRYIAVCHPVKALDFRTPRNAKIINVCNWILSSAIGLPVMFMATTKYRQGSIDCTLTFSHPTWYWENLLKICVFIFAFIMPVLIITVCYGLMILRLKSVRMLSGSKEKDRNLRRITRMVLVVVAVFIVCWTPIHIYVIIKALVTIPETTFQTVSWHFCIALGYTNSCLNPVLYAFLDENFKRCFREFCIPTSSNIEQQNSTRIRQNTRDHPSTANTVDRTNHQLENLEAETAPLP

Columns and labels:
Rattus norvegicus = organism: Rattus norvegicus; experiment: Dose required to produce 50% of the maximum possible analgesic effect by using rat paw pressure analgesia assay
[1] = molecular target: T1, Kappa-type opioid receptor (Homo sapiens, UniProt P41145); experiment: Binding affinity towards opioid receptor kappa was determined
Mu-type opioid receptor [2] = molecular target: T2, Mu-type opioid receptor (Homo sapiens, UniProt P35372); experiment: Binding affinity towards opioid receptor mu was determined
Mu-type opioid receptor [3] = molecular target: T2, Mu-type opioid receptor; experiment: Binding affinity towards Opioid receptor mu 1 was determined
[4] = molecular target: T1, Kappa-type opioid receptor; experiment: Binding affinity towards Opioid receptor kappa 1 was determined
Mu-type opioid receptor [5] = molecular target: T2, Mu-type opioid receptor; experiment: Binding affinity towards mu opioid receptor was determined

Row | SMILES | Ki [1] | Ki (Mu-type opioid receptor [2]) | also measured
1 | CN(C(=O)Cc1cccc2sccc12)[C@@H]1CCCC[C@H]1N1CCCC1.Cl | – | – | MPE50 (Rattus norvegicus): 1.4 mg/kg
2 | CN(C(=O)Cc1cccc2sccc12)[C@@H]1CCCC[C@H]1N1CCC[C@@H]1CO | > 10000 nM | > 10000 nM | –
3 | O=C(Cc1cccc2sccc12)NCCN1CCCC1 | 25000 nM | 10000 nM | –
4 | CN(C(=O)Cc1ccc2sccc2c1)[C@@H]1CCCC[C@H]1N1CCCC1.Cl | – | – | MPE50 (Rattus norvegicus): 6.1 mg/kg
5 | CN(C(=O)Cc1cccc2sccc12)[C@@H]1CCC[C@H]1N1CCCC1 | 154 nM | 3600 nM | –
6 | CO[C@H]1C[C@H](N(C)C(=O)Cc2cccc3occc23)[C@@H](N2CCCC2)C[C@H]1OC.Cl | – | – | MPE50 (Rattus norvegicus): 0.8 mg/kg
7 | CN(C(=O)Cc1cccc2sccc12)[C@@H]1CCCC[C@H]1N1CCC(CO)C1.Cl (stereo partly drawn) | – | – | MPE50 (Rattus norvegicus): >3.3 mg/kg
8 | CN(C(=O)Cc1cccc2ccsc12)[C@@H]1CCCC[C@H]1N1CCCC1 | 17 nM | 650 nM | –
9 | CN(C(=O)Cc1csc2ccccc12)[C@@H]1CCCC[C@H]1N1CCCC1 | – | – | Ki (Mu-type opioid receptor [3]): 1400 nM; Ki [4]: 69 nM
10 | CN(C(=O)Cc1cccc2occc12)[C@@H]1CCCC[C@H]1N1CCC(CO)C1.Cl (stereo partly drawn) | – | – | MPE50 (Rattus norvegicus): 4 mg/kg
11 | CN(C(=O)Cc1cccc2sccc12)[C@@H]1CCCCC[C@H]1N1CCCC1 | – | – | Ki [4]: 12 nM; Ki (Mu-type opioid receptor [5]): 1000 nM
12 | CCCCCN(CCN1CCCC1)C(=O)Cc1cccc2sccc12 | 2000 nM | 5200 nM | –
13 | Cl.O=C(Cc1cccc2sccc12)O[C@@H]1CCCC[C@H]1N1CCCC1 | – | – | MPE50 (Rattus norvegicus): >3.3 mg/kg
14 | CN(C(=O)Cc1cccc2sccc12)[C@@H]1CCCC[C@H]1N1CCC(CO)C1 (stereo partly drawn) | 7 nM | 560 nM | –
15 | CN(C(=O)Cc1cccc2sccc12)[C@@H]1CCCC[C@H]1N1CCC[C@H]1CO | > 1000 nM | > 100 nM | –
16 | CO[C@H]1C[C@H](N(C)C(=O)Cc2cccc3occc23)[C@@H](N2CCCC2)C[C@H]1OC | – | – | Ki [4]: 16 nM; Ki (Mu-type opioid receptor [5]): 820 nM
17 | O=C(Cc1cccc2sccc12)O[C@@H]1CCCC[C@H]1N1CCCC1 | 261 nM | 3340 nM | –

Row | SMILES | Ki [1] | Ki (Mu-type opioid receptor [2]) | also measured
18 | CN(C(=O)Cc1cccc2ccsc12)[C@@H]1CCCC[C@H]1N1CCCC1.Cl | – | – | MPE50 (Rattus norvegicus): >3.3 mg/kg
19 | CN(C(=O)Cc1csc2ccccc12)[C@@H]1CCCC[C@H]1N1CCCC1.Cl | – | – | MPE50 (Rattus norvegicus): 3.3 mg/kg
20 | CN(C(=O)Cc1cccc2occc12)[C@@H]1CCCC[C@H]1N1CCC(COC(=O)CCC(=O)OCC2CCN([C@H]3CCCC[C@@H]3N(C)C(=O)Cc3cccc4occc34)C2)C1 (stereo partly drawn) | 180 nM | 800 nM | –
21 | CO[C@H]1C[C@H](N(C)C(=O)Cc2cccc3sccc23)[C@@H](N2CCCC2)C[C@H]1OC | 18 nM | 2800 nM | –
22 | CN(C(=S)Cc1cccc2sccc12)[C@@H]1CCCC[C@H]1N1CCCC1 | – | – | Ki [4]: 53 nM; Ki (Mu-type opioid receptor [5]): 700 nM
23 | CN(C(=O)Cc1cccc2[nH]ccc12)[C@@H]1CCCC[C@H]1N1CCCC1 | 816 nM | 833 nM | –
24 | CN(C(=O)Cc1cccc2occc12)[C@@H]1CCCC[C@H]1N1CCC(COC(=O)CCCC(=O)OCC2CCN([C@H]3CCCC[C@@H]3N(C)C(=O)Cc3cccc4occc34)C2)C1 (stereo partly drawn) | 180 nM | 760 nM | –
25 | CN(C(=O)Cc1cccc2occc12)[C@@H]1CCCC[C@H]1N1CCC(CO)C1 (stereo partly drawn) | – | – | Ki [4]: 17 nM; Ki (Mu-type opioid receptor [5]): 4100 nM
26 | CN(C(=O)Cc1ccc2ccsc2c1)[C@@H]1CCCC[C@H]1N1CCCC1 | 146 nM | 425 nM | –
27 | CN(Cc1cccc2occc12)C(=O)[C@@H]1CCCC[C@H]1N1CCCC1 | – | – | Ki [4]: 37000 nM; Ki (Mu-type opioid receptor [5]): 20300 nM
28 | CN(C(=O)Cc1cccc2sccc12)[C@@H]1CCCC[C@H]1N1CCCC1 | 3.7 nM | 410 nM | –
29 | O=C(Cc1cccc2sccc12)N[C@@H]1CCCC[C@H]1N1CCCC1 | – | – | Ki [4]: 333 nM; Ki (Mu-type opioid receptor [5]): 4800 nM
30 | O=C(Cc1cccc2sccc12)N1CC2CCCN2[C@@H]2CCCC[C@H]21 (stereo partly drawn) | – | – | Ki [4]: 28000 nM; Ki (Mu-type opioid receptor [5]): 17500 nM
31 | CN(CCc1cccc2sccc12)[C@@H]1CCCC[C@H]1N1CCCC1 | 8100 nM | 14300 nM | –
32 | CN(C(=O)Cc1ccc2sccc2c1)[C@@H]1CCCC[C@H]1N1CCCC1 | 94 nM | 475 nM | –
33 | CO[C@H]1C[C@H](N(C)C(=O)Cc2cccc3sccc23)[C@@H](N2CCCC2)C[C@H]1OC.Cl | – | – | MPE50 (Rattus norvegicus): 1.5 mg/kg
34 | CN(C(=O)Cc1ccc2ccsc2c1)[C@@H]1CCCC[C@H]1N1CCCC1.Cl | – | – | MPE50 (Rattus norvegicus): 4.6 mg/kg
